# Laboratory results taken from ChEMBL document CHEMBL1148673, “Peptidomimetic C5a receptor antagonists with hydrophobic substitutions at the C-terminus: increased receptor specificity and in vivo activity” (Bioorg Med Chem Lett, 2006).
# Sequences of proteins named here, by UniProt entry; tags and fusion partners are left off. A change or cut given only in a name is not applied to a line headed by its entry.
# UniProt P37288, whole entry: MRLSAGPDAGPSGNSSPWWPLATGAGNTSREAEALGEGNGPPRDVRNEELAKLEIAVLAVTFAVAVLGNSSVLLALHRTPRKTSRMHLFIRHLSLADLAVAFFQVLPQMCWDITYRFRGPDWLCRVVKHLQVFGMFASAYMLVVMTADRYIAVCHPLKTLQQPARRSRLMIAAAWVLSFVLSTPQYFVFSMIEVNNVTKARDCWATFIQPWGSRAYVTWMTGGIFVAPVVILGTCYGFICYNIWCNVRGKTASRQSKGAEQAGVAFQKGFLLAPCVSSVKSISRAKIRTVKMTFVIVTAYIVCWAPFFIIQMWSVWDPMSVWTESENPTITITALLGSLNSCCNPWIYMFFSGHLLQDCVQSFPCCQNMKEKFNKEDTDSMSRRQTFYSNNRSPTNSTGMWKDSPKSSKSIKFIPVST
# UniProt P21452, whole entry: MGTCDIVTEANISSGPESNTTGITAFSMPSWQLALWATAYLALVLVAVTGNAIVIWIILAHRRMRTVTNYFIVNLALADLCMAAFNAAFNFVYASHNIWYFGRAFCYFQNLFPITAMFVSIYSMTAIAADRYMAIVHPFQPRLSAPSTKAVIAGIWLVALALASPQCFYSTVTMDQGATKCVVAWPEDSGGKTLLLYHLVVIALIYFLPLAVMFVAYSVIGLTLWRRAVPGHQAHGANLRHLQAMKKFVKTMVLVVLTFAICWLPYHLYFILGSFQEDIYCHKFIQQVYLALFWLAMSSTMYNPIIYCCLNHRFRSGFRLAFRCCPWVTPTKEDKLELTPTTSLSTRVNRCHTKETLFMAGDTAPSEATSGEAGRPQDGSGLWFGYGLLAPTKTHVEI
# UniProt P32245, whole entry: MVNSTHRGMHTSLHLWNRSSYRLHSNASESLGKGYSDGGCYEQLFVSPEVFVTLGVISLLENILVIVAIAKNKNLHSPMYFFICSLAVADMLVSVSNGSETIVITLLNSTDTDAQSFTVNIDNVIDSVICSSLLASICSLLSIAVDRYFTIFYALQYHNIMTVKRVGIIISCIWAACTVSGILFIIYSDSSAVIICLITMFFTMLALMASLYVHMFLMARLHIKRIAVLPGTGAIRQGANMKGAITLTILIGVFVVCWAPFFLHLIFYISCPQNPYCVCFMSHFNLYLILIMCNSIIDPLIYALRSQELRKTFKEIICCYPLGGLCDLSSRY
# UniProt P41146: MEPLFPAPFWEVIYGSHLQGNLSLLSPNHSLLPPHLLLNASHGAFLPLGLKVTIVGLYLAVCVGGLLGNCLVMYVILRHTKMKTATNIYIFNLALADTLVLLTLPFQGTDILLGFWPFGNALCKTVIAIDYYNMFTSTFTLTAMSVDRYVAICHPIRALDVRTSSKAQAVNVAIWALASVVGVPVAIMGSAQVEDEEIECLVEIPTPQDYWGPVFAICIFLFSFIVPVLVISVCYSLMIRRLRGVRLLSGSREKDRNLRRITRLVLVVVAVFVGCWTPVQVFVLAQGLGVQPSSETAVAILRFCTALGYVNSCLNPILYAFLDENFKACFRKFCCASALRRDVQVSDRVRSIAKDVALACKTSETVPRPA
# Tests used:
# Vasopressin V1a receptor = Vasopressin V1a receptor (Homo sapiens, UniProt P37288); experiment: Binding affinity to V1a receptor
# Substance-K receptor = Substance-K receptor (Homo sapiens, UniProt P21452); experiment: Binding affinity to NK2 receptor
# Melanocortin receptor 4 = Melanocortin receptor 4 (Homo sapiens, UniProt P32245); experiment: Binding affinity to MC4 receptor
# Nociceptin receptor = Nociceptin receptor (Homo sapiens, UniProt P41146); experiment: Binding affinity to ORL1 receptor
structure (smiles),measurement,setting,value
CC(=O)N[C@@H](Cc1ccccc1)C(=O)N[C@H]1CCCNC(=O)[C@H](CCCNC(=N)N)NC(=O)[C@H](Cc2c[nH]c3ccccc23)NC(=O)[C@@H](CC2CCCCC2)NC(=O)[C@@H]2CCCN2C1=O,IC50,Vasopressin V1a receptor,740 nM
same,IC50,Substance-K receptor,87 nM
same,IC50,Melanocortin receptor 4,400 nM
same,IC50,Nociceptin receptor,2200 nM
